{"source": "ChEMBL document CHEMBL3046627", "about": "“Synthesis and in vitro study of antibacterial, antifungal activities of some novel bisquinolines” (2013)", "tested_on": "Escherichia coli", "test": "Antibacterial activity against Escherichia coli 319 assessed as growth inhibition after 24 hr by agar dilution method", "assay_type": "functional"}
{"sequence": "GENTAMICIN", "values": [{"measurement": "MIC", "result": 0.5, "unit": "µg/mL"}]}
